# Test results published in patent publication US20080095857A1, “Carrier system in the form of protein-based nanoparticles for the cell-specific enrichment of pharmaceutically active substances” (LTS LOHMANN THERAPIE-SYSTEME AG LOHMANNSTRASSE 2, priority 2004, published 2008).
# How the values were obtained:
# [1] = system: SK-Br-3 cells; test: Control: absorption after pre-incubation of the cells with free Trastuzumab (FACS, CLSM); type: cell-based, human; details: SK-Br-3 cells pre-incubated 30 minutes with 2.5 μg/ml free Trastuzumab per 2×10^5 cells
# Procedure: On the one hand, nanoparticles were used which were not loaded with a specific antibody. On the other hand, the experiments were made with MCF-7 cells (normal BER2 expression). Furthermore, control experiments were carried out with SK-Br-3 cells which were pre-incubated for 30 minutes with 2.5 μg/ml free anti-BER2 antibodies (Trastuzumab) per 2×10^5 cells. After this period, the nanoparticles loaded with the anti-HER2 antibody were added. The cellular absorption was evaluated qualitatively by confocal microscopy as well as quantitatively by flow cytometry.
# [2] = system: Human breast cancer cell lines (SK-Br-3-, MCF-7-, BT474 cells) with expression of the HER2 surface antigen; test: Cell-specific absorption of anti-HER2-antibody-modified nanoparticles in breast cancer cells (FACS, CLSM); type: cell-based; details: 100 μg/ml, 3 hours, FACS and CLSM (FIG. 2)
substance,measurement,setting,value
"Trastuzumab-modified nanoparticles: Gelatine A nanoparticles, NeutrAvidin-modified, loaded with biotinylated antibody Trastuzumab (Herceptin)",cellular absorption after treatment of the cells with free specific antibody,[1],could be prevented
same,cellular absorption of nanoparticles,[2],cellularly absorbed
